This is an account of results in PubChem BioAssay AID1851 (National Center for Advancing Translational Sciences (NCATS), 2009).

Amino acid sequences for entries named in this document (tags omitted).
UniProt P11712, whole entry, looked up: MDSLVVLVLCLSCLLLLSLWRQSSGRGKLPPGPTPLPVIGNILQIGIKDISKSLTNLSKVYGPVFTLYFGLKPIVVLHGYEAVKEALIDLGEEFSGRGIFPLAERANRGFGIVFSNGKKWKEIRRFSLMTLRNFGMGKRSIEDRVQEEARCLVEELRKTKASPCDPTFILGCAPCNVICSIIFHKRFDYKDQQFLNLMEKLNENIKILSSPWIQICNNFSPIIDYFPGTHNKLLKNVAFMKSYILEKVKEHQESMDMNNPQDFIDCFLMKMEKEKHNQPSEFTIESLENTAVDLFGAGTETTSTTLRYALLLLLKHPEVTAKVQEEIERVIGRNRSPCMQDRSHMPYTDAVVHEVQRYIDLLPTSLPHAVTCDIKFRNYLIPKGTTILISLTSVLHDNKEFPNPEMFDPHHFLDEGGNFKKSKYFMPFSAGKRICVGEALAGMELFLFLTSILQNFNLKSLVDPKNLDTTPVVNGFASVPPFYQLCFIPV

This is a selection; strong and weak results do not stand in their true shares. Results filed as inconclusive are left out. Some compounds were tested as several samples or in several runs, with calls that do not always agree. The source made the active and inactive calls. Calls follow the shape of the dose curve; as a rule, active = well fitted curve in the direction sought with a large enough effect; inconclusive = small, poorly fitted or top-dose-only effect, or effect the other way; inactive = no such curve, though single readings can be large or run the other way.

For this test, the target named is Cytochrome P450 2C9 (Homo sapiens) (UniProt P11712). As to the kind of experiment: Cytochrome panel assay with activity outcomes. The following applies: recombinant CYP, pro-luciferin dealkylation, luminescence; p450-cyp2c9.
The term AC50 denotes the concentration at which the activity in the assay is half-maximal. Regarding `O=c1c(O)c(-c2ccc(O)c(O)c2)oc2cc(O)cc(O)c12`, the AC50 is active: 1000 nM.
